Assay results published in publication PMC6317804, “The integration of pharmacophore-based 3D QSAR modeling and virtual screening in safety profiling: A case study to identify antagonistic activities against adenosine receptor, A2A, using 1,897 known drugs” (PLoS ONE, 2019).

Assays:
[1] = biological target: T1, adenosine receptor 2A (A2A) (Homo sapiens, UniProt P29274); assay: Functional assay monitoring Ca2+ flux (DiscoveRx); settings: read-out: IC50, Ca2+, M;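 note: concentration-response testing with 10 µM as highest concentration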
[2] = biological target: T1, adenosine receptor 2A (A2A); assay: Competition binding assay using radioactive ligands (CEREP); parameters: dose or concentration left out as unconfirmed; settings: read-out: %inhibition, binding;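 note: compounds screened at a single fixed 10 µM concentration for displacement of a radioligand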
[3] = biological target: T1, adenosine receptor 2A (A2A); assay: Functional antagonist assay monitoring cAMP (CEREP); settings: read-out: IC50, cAMP, M
[4] = biological target: T1, adenosine receptor 2A (A2A); parameters: CEREP (Poitiers, France), paid service; settings: S1 Table, compounds given as SMILES, downloaded from ChEMBL; cited from earlier work

Compound CCOc1ccccc1OC(c1ccccc1)C1CNCCO1 (stereo not shown) [Reboxetine] has an inhibition [1] of under 50%, an inhibition [2] of under 50% and an inhibition [3] of under 50%.

Compound C[C@@H]1C[C@H]2[C@@H]3C[C@H](F)C4=CC(=O)C=C[C@]4(C)[C@@]3(F)[C@@H](O)C[C@]2(C)[C@@]1(O)C(=O)CO [Flumethasone] has an inhibition [1] of under 50%, an inhibition [2] of under 50% and an inhibition [3] of under 50%.

For Nc1nc2c(cnn2CCCc2ccccc2)c2nc(-c3ccco3)nn12, the IC50 [4] is listed as 18 nM.
